System: BT747 breast cancer tumor fragments
Assay: BT747 breast tumor growth
Format: in vivo, mouse
Conditions: small initial tumor size groups; M0038-F01 10, 1 or 0.1 mg/kg Q2d IP; trastuzumab 20 mg/kg
Protocol: Fragments (approximately 1 mm^3) of BT747 breast cancer tumor fragments were implanted into the flanks of female HRLN CB.17 SCID mice. […] All groups were dosed by intraperitoneal (IP) injection. Tumor volume was measured biweekly.
Additionally, a seventh group of ten animals bearing large tumors (288 mm^3) was selected for testing with a combination therapy (M0038-F01, 10 mg/kg Q2d, starting at day 3 plus trastuzumab, 20 mg/kg biweekly, starting at day 4).

For “Trastuzumab: Her2-binding antibody [reference compound]”, the tumor growth was “inhibited tumor growth to an extent similar to 10 mg/kg M0038-F01”.

— US8106168B2, “Metalloproteinase binding proteins” (Dyax Corp., priority 2005, dated 2012)
